ChEMBL document CHEMBL1129993, “Synthesis and biological characterization of 1,4,5,6-tetrahydropyrimidine and 2-amino-3,4,5,6-tetrahydropyridine derivatives as selective m1 agonists” (J Med Chem, 1997)

Tests used:
[1] = target: T1, Muscarinic acetylcholine receptor M1 (Mus musculus, UniProt P12657); assay: biochemical
T1 sequence (P12657 whole entry): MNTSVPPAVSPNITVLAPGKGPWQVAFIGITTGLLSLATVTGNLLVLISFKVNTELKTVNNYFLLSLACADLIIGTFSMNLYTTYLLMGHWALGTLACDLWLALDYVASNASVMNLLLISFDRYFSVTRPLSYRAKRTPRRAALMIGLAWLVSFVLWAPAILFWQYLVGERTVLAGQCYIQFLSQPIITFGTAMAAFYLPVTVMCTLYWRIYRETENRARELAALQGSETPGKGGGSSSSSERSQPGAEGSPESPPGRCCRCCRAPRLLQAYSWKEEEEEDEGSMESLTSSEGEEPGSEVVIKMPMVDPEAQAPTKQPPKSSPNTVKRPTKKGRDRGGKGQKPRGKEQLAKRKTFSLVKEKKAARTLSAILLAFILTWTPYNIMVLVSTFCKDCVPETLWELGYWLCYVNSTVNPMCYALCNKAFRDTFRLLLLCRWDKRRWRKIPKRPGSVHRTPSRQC

[2] = target: T1, Muscarinic acetylcholine receptor M1; assay: biochemical; remark: listed apart in the source

C[N+](C)(C)CCOC(N)=O.[Cl-] [CARBACHOL]
Ki [1]: 0.739 µM | Ki [2]: 0.0199 µM
